B1: Leukocyte immunoglobulin-like receptor subfamily B member 2 (Homo sapiens), Q8N423 (parent)
chain: MTPIVTVLICLGLSLGPRTRVQTGTIPKPTLWAEPDSVITQGSPVTLSCQGSLEAQEYRLYREKKSASWITRIRPELVKNGQFHIPSITWEHTGRYGCQYYSRARWSELSDPLVLVMTGAYPKPTLSAQPSPVVTSGGRVTLQCESQVAFGGFILCKEGEDEHPQCLNSQPHARGSSRAIFSVGPVSPNRRWSHRCYGYDLNSPYVWSSPSDLLELLVPGVSKKPSLSVQPGPVMAPGESLTLQCVSDVGYDRFVLYKEGERDLRQLPGRQPQAGLSQANFTLGPVSRSYGGQYRCYGAHNLSSECSAPSDPLDILITGQIRGTPFISVQPGPTVASGENVTLLCQSWRQFHTFLLTKAGAADAPLRLRSIHEYPKYQAEFPMSPVTSAHAGTYRCYGSLNSDPYLLSHPSEPLELVVSGPSMGSSPPPTGPISTPGPEDQPLTPTGSDPQSGLGRHLGVVIGILVAVVLLLLLLLLLFLILRHRRQGKHWTSTQRKADFQHPAGAVGPEPTDRGLQWRSSPAADAQEENLYAAVKDTQPEDGVEMDTRAAASEAPQDVTYAQLHSLTLRRKATEPPPSQEREPPAEPSIYATLAIH

Variants of: B1
Details: with hlag_human HLA-G

Row | Variant | effect of a mutation on the interaction
1 | W90A;D200A;N202A;Y205A | with no effect
2 | R95E | decreasing interaction strength
3 | Y96A;G392D | disrupting interaction strength
4 | Y100G | decreasing interaction strength
5 | Y394A | decreasing interaction strength
6 | Q99R | decreasing interaction strength
7 | R59A;Y61A | disrupting interaction strength
8 | Y96A;T393E | disrupting interaction strength
9 | G97R | decreasing interaction strength
10 | H92S | decreasing interaction strength
11 | G392D | decreasing interaction strength
12 | R59A;Y61A;W90A;D200A;N202A;Y205A | disrupting interaction strength
13 | G94D | disrupting interaction strength
14 | T393E | decreasing interaction strength
15 | T93A | decreasing interaction strength
16 | Y96A;Y394A | disrupting interaction strength
17 | Y96A | decreasing interaction strength

— IntAct's records for PubMed 24899623
